The Ki is a dissociation constant, usually derived from enzyme kinetics or from competition with a known ligand. The term EC50 denotes the concentration that produces a half-maximal response. Higher therefore signals a need for much substance.

Chains of the proteins cited; added tags and fusions are not shown. Lines headed by an entry give the natural chain unless they say otherwise; changes in a name come on top.
UniProt P41145: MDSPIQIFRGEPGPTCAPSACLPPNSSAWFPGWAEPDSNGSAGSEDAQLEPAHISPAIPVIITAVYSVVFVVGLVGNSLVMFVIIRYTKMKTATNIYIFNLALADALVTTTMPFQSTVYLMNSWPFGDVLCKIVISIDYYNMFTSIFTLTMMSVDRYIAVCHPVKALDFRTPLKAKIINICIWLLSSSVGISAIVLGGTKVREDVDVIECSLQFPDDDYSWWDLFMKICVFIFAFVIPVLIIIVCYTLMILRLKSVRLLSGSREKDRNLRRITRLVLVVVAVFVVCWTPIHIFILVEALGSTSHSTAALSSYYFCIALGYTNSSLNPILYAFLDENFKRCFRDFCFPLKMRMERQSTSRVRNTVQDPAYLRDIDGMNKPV

Here are results for three compounds from PMC1805503 (Beilstein Journal of Organic Chemistry, 2007).

Structures are written as SMILES. Where two headings read alike, the source gives them in different places.

Experiment [1] addresses T1, human KOR (Homo sapiens, UniProt P41145).
T1 construct: expressed in transfected cells; host or cells: CHO cells expressing hKOR (membranes), according to the assay names of the earlier reading
Particulars: cited from earlier work.

The target of experiment [2] is T1, human KOR. Nature of the experiment: biochemical. In kind it is binding.
For experiment [3], the target named is T1, human KOR. Nature of the experiment: biochemical.

On to `COC(=O)C1CC(OC(C)=O)C(=O)C2C1(C)CCC1C(=O)OC(c3ccoc3)CC12C` (stereo not drawn) [Compound 1b, 8-epi-salvinorin A], for which the “affinity and potency at the KOR relative to 1a” value on human KOR [1] (compared with 1a) is on record as “dramatically lower”.
Consider `COC(=O)[C@@H]1C[C@H](O)C(=O)[C@H]2[C@@]1(C)CC[C@H]1C(=O)O[C@H](c3ccoc3)C[C@]21C` [Compound 2a, salvinorin B, reference compound], for which, on human KOR [1] (read-out: binding affinity (Ki) at the KOR, previously reported), the Ki was 111 nM.
Turning to `COC(=O)C1CC(O)C(=O)C2C1(C)CCC1C(=O)OC(c3ccoc3)CC12C` (stereo not drawn) [Compound 2b, 8-epi-salvinorin B], the Ki on human KOR [2] was determined as 304 ± 46 nM. The compound further gave an EC50 on human KOR [3] of 214 ± 33 nM.
